Assay results published in patent publication US20090137001.

Test system: fibrinogen (Juridical Foundation The Chemo-Sero-Therapeutic Research Institute)

Substance | Clotting activity (Japan Pharmacopoeia standard) [U/mg] | Clotting activity (NIBSC standard) [U/mg]
purified human thrombin derived from plasma (purchased from HTI) | 1790 | 2937
purified recombinant human thrombin (from human prothrombin expressed in CHO cells, activated with recombinant ecarin) | 1784 | 3218
